How the values were obtained:
Type in all cases: functional
Streptococcus agalactiae = experiment: Antibacterial activity against Streptococcus agalactiae assessed as percent susceptible isolates by CLSI M100-S18 method
[1] = Antibacterial activity against Lancefield Streptococcus sp. 'group C' assessed as percent susceptible isolates by CLSI M100-S18 method
[2] = Antibacterial activity against Lancefield Streptococcus sp. 'group G' assessed as percent susceptible isolates by CLSI M100-S18 method

Measured: Activity

CC[C@H]1OC(=O)[C@H](C)[C@@H](O[C@H]2C[C@@](C)(OC)[C@@H](O)[C@H](C)O2)[C@H](C)[C@@H](O[C@@H]2O[C@H](C)C[C@H](N(C)C)[C@H]2O)[C@](C)(O)C[C@@H](C)CN(C)[C@H](C)[C@@H](O)[C@]1(C)O [AZITHROMYCIN]
98%: Streptococcus agalactiae | [1] | [2]
